# Apparent affinities of Ab-91 variants for a coronavirus HR2 peptide

Binding partner: SARS-CoV-2 spike HR2 peptide, sequence PDVDLGDISGINAS.

Each scFv is VL, a (GGGGS)3 linker, VH, as in the parent Ab-91, and differs from it in the CDRs of the heavy chain only.
VL: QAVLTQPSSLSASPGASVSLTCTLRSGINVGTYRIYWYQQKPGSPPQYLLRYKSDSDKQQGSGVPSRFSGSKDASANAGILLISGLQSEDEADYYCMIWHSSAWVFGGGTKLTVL
VH: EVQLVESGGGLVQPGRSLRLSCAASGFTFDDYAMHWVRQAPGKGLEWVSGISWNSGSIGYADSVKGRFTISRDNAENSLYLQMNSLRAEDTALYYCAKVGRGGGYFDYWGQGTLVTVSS

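The parent was found by panning a naive human phage display library on the peptide. AAYL51 was designed without a model: most single CDR substitutions and a random sample of double and triple ones. AlphaSeq pools MATa yeast showing the antibodies with MATalpha yeast showing the peptide. Mating (16 h, 30 °C) was followed by selection of diploids and sequencing of their barcodes. Read counts were normalised to the haploid input and turned into Kd by a linear fit to BCL2-family pairs of known affinity, for each replicate. Mating was done three times.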

Sequences are complete VH domains.
All variants listed here change S57 of the VH, counted from its first residue.
Kd is apparent (estimated from mating counts) and averaged on the log scale over replicates with a signal. Smaller is tighter.
Where no diploid with the target was found in any replicate, the entry reads "nd": below detection, most likely a poor binder, though not proof of it.

- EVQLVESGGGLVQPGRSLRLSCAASGFTFDDYAMHWVRQAPGKGLEWVSGISWNSGVIGYDDSVKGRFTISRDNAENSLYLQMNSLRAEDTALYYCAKVGRNGGYFDYWGQGTLVTVSS = 6.8 µM (1 of 3 replicates)
- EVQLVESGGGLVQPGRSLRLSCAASGFTFDDYAMHWVRQAPGKGLEWVSGISWNSGGHGYADMVKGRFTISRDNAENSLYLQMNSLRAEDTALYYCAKVGRGGGYFDYWGQGTLVTVSS = 170 nM (3 of 3 replicates)
- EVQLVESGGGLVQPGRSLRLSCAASGFTFDDYAMHWVRQAPGKGLEWVSGISLNSGRIGYADSVKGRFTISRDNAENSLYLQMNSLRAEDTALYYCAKVGRGGGGFDYWGQGTLVTVSS = 12 µM (2 of 3 replicates)
- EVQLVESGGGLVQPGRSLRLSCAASQFTYDDYAMHWVRQAPGKGLEWVSGISWNSGYIGYADSVKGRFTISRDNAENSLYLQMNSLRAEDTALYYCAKVGRGGGYFDYWGQGTLVTVSS = nd (0 of 3 replicates)
- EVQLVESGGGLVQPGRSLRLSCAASGFTFDDYAMHWVRQAPGKGLEWVSGISWNSGQIGYADSVKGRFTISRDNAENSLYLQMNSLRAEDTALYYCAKVWRGGNYFDYWGQGTLVTVSS = nd (0 of 3 replicates)
- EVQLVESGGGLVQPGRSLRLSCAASGFTFDDYAMHWVRQAPGKGLEWVSGIFWNSGMIGYADSVKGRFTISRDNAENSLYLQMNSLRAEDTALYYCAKVGRGIGYFDYWGQGTLVTVSS = 240 µM (1 of 3 replicates)
- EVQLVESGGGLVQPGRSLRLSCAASGFTFDDYAPHWVRQAPGKGLEWVSGISWNSGNIGYADSVKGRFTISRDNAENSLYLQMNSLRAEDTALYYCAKVGRGGGYFDYWGQGTLVTVSS = 47 µM (2 of 3 replicates)
- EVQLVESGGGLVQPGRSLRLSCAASGFTFDDYAIHWVRQAPGKGLEWVSGISWNSGYIGYAKSVKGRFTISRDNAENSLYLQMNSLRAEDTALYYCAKVGRGGGYFDYWGQGTLVTVSS = 91 µM (1 of 3 replicates)
- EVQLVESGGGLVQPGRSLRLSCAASGFTFDDYAMHWVRQAPGKGLEWVSGISWNSGCIGYADSVKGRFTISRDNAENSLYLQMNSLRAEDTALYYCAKVGRGGGYFDYWGQGTLVTVSS = 4.4 µM (3 of 3 replicates)
- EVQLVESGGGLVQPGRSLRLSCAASGFTFDDYAMHWVRQAPGKGLEWVSGISWNSGIIGYADSVKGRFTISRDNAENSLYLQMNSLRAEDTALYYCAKVIRGGGSFDYWGQGTLVTVSS = nd (0 of 3 replicates)
- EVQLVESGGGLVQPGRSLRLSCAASGFTFDDEAMHWVRQAPGKGLEWVSGISWNSGWGGYADSVKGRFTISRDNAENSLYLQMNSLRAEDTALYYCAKVGRGGGYFDYWGQGTLVTVSS = 360 µM (3 of 3 replicates)
- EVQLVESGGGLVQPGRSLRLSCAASGFTFDDYAMHWVRQAPGKGLEWVSGISWNSGNHGYADSVKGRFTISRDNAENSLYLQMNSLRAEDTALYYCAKVGRGGGYFGYWGQGTLVTVSS = nd (0 of 3 replicates)
- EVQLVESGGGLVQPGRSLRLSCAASGFTFDWYAMHWVRQAPGKGLEWVSGISWNSGDIGYADSVKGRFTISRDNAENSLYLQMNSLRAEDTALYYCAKVGRGGGYFDYWGQGTLVTVSS = 1.1 nM (3 of 3 replicates)
- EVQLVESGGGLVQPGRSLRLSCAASGFTFDDYAMHWVRQAPGKGLEWVSGIEWFSGDIGYADSVKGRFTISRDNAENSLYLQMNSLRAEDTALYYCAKVGRGGGYFDYWGQGTLVTVSS = 20 µM (1 of 3 replicates)
- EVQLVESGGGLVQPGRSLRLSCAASGFTFFDYAMHWVRQAPGKGLEWVSGISWNSGCIGYADSVKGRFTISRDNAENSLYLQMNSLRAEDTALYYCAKVGRGGGYFDYWGQGTLVTVSS = 26 µM (3 of 3 replicates)
- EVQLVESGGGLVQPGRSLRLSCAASGFTFDDYAMHWVRQAPGKGLEWVSGISWCSGGIGYADSVKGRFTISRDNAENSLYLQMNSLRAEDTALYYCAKVGRGGGYFDYWGQGTLVTVSS = 4.3 µM (1 of 3 replicates)

The first 3 entries again:

{"VH": "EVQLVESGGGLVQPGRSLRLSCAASGFTFDDYAMHWVRQAPGKGLEWVSGISWNSGVIGYDDSVKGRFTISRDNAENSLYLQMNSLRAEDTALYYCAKVGRNGGYFDYWGQGTLVTVSS", "apparent Kd": "6.8 µM", "detected": "1/3"}
{"VH": "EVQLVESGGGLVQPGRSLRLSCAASGFTFDDYAMHWVRQAPGKGLEWVSGISWNSGGHGYADMVKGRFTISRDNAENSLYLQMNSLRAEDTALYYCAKVGRGGGYFDYWGQGTLVTVSS", "apparent Kd": "170 nM", "detected": "3/3"}
{"VH": "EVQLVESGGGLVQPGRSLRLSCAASGFTFDDYAMHWVRQAPGKGLEWVSGISLNSGRIGYADSVKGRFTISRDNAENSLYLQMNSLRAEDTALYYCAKVGRGGGGFDYWGQGTLVTVSS", "apparent Kd": "12 µM", "detected": "2/3"}

Nonspecific signal, from three strains lacking the peptide, appeared in 21% of pairings of library AAYL51, centred on 34 µM (5% of these signals below 1.8 µM); values are not corrected for it.
Parent in this assay: reference entry 72 nM, copy in this library 7.5 nM.

Source: Engelhart et al. 2022 (doi:10.1038/s41597-022-01779-4), MIT Lincoln Laboratory and A-Alpha Bio; data file from the FLAb repository.